The list shows a part of the results, in another mix than the full data. Activity calls are given as the source filed them.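 Rule for the calls: active = activity above about 14% (limit read from the data; passing the limit was not always enough); inactive = the rest.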

Protein sequences, listed by entry. Tags and fused reporters are not part of them. Lines headed by an entry give the natural chain unless they say otherwise; changes in a name come on top.
UniProt P20393: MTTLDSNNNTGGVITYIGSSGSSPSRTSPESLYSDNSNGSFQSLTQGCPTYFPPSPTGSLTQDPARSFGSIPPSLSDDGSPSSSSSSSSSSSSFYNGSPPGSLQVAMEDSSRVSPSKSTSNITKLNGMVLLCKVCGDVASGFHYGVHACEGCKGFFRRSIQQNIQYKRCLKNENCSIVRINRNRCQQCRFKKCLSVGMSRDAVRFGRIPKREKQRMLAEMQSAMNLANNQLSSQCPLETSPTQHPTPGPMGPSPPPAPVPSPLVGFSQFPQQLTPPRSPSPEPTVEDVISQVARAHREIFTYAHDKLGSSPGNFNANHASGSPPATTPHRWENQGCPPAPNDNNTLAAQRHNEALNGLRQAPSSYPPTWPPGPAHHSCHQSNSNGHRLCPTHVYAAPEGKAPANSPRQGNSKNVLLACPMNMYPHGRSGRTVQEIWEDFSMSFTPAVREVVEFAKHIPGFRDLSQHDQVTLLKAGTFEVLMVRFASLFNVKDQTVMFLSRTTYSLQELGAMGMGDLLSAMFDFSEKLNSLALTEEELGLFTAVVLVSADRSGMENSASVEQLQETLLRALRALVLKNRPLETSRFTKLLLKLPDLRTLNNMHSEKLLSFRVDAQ

These results are taken from PubChem BioAssay AID1259318 (Sanford-Burnham Center for Chemical Genomics, 2017).

The assay has as its target Nuclear receptor subfamily 1 group D member 1 (Homo sapiens) (UniProt P20393). Description: Rev-erbα–DNA interaction modulation – biochemical, FITC-DNA, fluorescence polarization, uHTS, primary screen (AID 1259318).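 Note: 0% = DMSO wells with 35 nM protein and 100% = DMSO wells with 750 nM protein.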 As to conditions: Rev-erbα–FITC-DNA binding, 90 min, at 10 µM, stronger effect = higher value.
As for `Cc1ccc(NP(=O)(Oc2ccccc2F)Oc2ccccc2F)nc1`, the activity is inactive: -0.39%.

Regarding `CN(C(=O)Cc1ccc(Cl)c(Cl)c1)[C@H]1CCCC[C@@H]1N1CCCC1`, the activity is inactive: -5.53%. Next, `CCOP(=O)(Nc1ccccc1)OCC`: inactive: -0.61%. Consider `Cc1cc(SC(NC(=O)c2ccc(F)cc2)C(Cl)(Cl)Cl)ncn1` (stereo not given), for which the activity is inactive: -1.54%. The same measure for `CCn1c(=O)n(C2CCN(CC3CCCCCCC3)C[C@H]2CO)c2ccccc21` (stereo not given in full): inactive: -4.41%. Next, `CCCC1OP(N)(=O)OCC1CC` (stereo not given): inactive: 6.18%. The same measure for `O=C(O)c1ccccc1[As](=O)(O)O`: inactive: 3.62%; for `CC(=O)Nc1ccc([As](=O)(O)O)cc1`: inactive: -5.22%; for `CN(C)P(=O)(N(C)C)n1c(Nc2ccccc2)nnc1-c1ccccc1`: inactive: 0.9%. Consider `O=P(Nc1nc2ccc(Cl)cc2s1)(c1ccccc1)c1ccccc1`, for which the activity is inactive: 2.74%. In the case of `CCN(N=Nc1nonc1N)c1nonc1N`, the activity was inactive: -0.13%. For the compound `CN(C(=O)Cc1ccccc1)C1CC[C@@]2(CCCO2)C[C@@H]1N1CCCC1` (stereo not given in full), the activity was inactive: -1.8%.

`Nc1cccc2ccc([As](=O)(O)O)cc12`: the activity is inactive: -25.1%. With `Cc1ccc(OP(=O)(Nc2nccs2)Oc2ccc(C)cc2)cc1`, the activity is inactive: -2.75%. The same measure for `COc1ccccc1OP(=O)(Nc1ccc(C)cn1)Oc1ccccc1OC`: inactive: -7.3%. Next, `Clc1ccc(Cl)c(NC2=NCC(CBr)S2)c1` (stereo not given): inactive: -3.75%. Next, `CN1CCCC(OC(=O)C(c2ccccc2)c2ccccc2)C1` (stereo not given): inactive: 0.24%; `NC(=O)c1cc([N+](=O)[O-])cc([N+](=O)[O-])c1N`: inactive: 4.7%. As for `Cc1ccc(N/C(=N/P(=O)(N2CCOCC2)N2CCOCC2)N2CCOCC2)cc1`, the activity is inactive: 6.98%.

For `CN(C(=O)Cc1ccc(Cl)c(Cl)c1)[C@H]1CCCC[C@H]1N1CCCC1`, the activity is inactive: -0.98%.

`CC(C)CC(=O)NC(Sc1ccc(Cl)cc1)C(Cl)(Cl)Cl` (stereo not given): the activity is inactive: -3.8%.

In the case of `Nc1cc(N)c2nonc2c1[N+](=O)[O-]`, the activity was inactive: 5.66%. For the compound `O=C(NC(Sc1ccncn1)C(Cl)(Cl)Cl)c1ccccc1` (stereo not given), the activity was inactive: 2.87%. The same measure for `Oc1ccccc1CNc1ccccn1`: inactive: 0.88%; for `O=[N+]([O-])c1cccc2n[nH]nc12`: inactive: -2.8%; for `CC(=O)N1C2C3N(C(C)=O)C1C1N(C(C)=O)C(C(N1C(C)=O)N3C(C)=O)N2C(C)=O`: inactive: 1.42%. Take `CCc1nc2c(n1)c1c(non1O)c1c2no[n+]1[O-]`: the activity was inactive: -5.66%. Turning to `O=[N+]([O-])c1cc([N+](=O)[O-])c(CCNc2ccccc2)c([N+](=O)[O-])c1`, the activity is inactive: 1.17%.

As to `Cc1ccc(NP(=O)(Oc2ccccc2)Oc2ccccc2)nc1`, the activity is inactive: -2.68%. As for `COc1ccc(C2=NCC(CBr)S2)cc1` (stereo not given), the activity was inactive: -1.38%. For `CN(C)C(=O)OCCc1n(C)cc[n+]1C`, the activity was inactive: 1.27%.

For the compound `CC(C)=N/N=C(\N)N[N+](=O)[O-]`, the activity was inactive: 4.12%. The same measure for `CC(C)c1nc(Nc2ccccc2)n(P(=O)(N(C)C)N(C)C)n1`: inactive: -9.38%; for `c1cc(-c2nn[nH]n2)ccc1-c1nn[nH]n1`: inactive: -2.77%; for `CC1CCN(C(=O)Oc2c(Cl)cc(Cl)c3cccnc23)CC1`: inactive: 5.06%. In the case of `C[N+]1=C2C=CC=CC=C2SC12C([N+](=O)[O-])=CC([N+](=O)[O-])=C[C-]2[N+](=O)[O-]` (stereo not given), the activity is inactive: -30.7%.

Regarding `Nc1ccc([As](=O)(O)c2ccc(N)cc2)cc1`, the activity is inactive: 5.58%. Next, `CCN(/C(=N/P(=O)(N1CCOCC1)N1CCOCC1)N1CCOCC1)c1ccc(OC)cc1`: inactive: 1.32%. Turning to `O=C(Nc1cc([As](=O)(O)O)ccc1O)c1ccccc1`, the activity was inactive: 1.47%. Next, `O=P1(N(CCCl)CCCl)OCCCS1` (stereo not given): inactive: -7.78%. Next, `O=[N+]([O-])c1cccc(NC2=NCC(CBr)S2)c1` (stereo not given): inactive: 3.74%. The same measure for `COC(=O)C1(C)COP(=O)(Nc2ccccc2)OC1` (stereo not given): inactive: 0.82%; for `O=C(O)CNc1ccc([As](=O)(O)O)cc1`: inactive: -0.37%. On to `CC(C)(C)C(=O)NC(Sc1ccncn1)C(Cl)(Cl)Cl` (stereo not given), for which the activity is inactive: 6.35%. Next, `O=[N+]([O-])c1ncn(CCn2ncnc2[N+](=O)[O-])n1`: inactive: -3.65%; `C[C@H]1OP(=O)(Oc2ccccc2)[C@H](O)[C@H](O)[C@H]1N=[N+]=[N-]` (stereo not given in full): inactive: -0.62%; `O=P(Nc1nc2ccccc2s1)(c1ccccc1)c1ccccc1`: inactive: 4.28%. Next, `Nc1ccc(CCCCOc2ccccc2)cc1`: inactive: -0.56%; `COc1ccc(N)c([N+](=O)[O-])c1[N+](=O)[O-]`: inactive: -3.94%; `O=P(Nc1ccccn1)(c1ccc(Br)cc1)c1ccc(Br)cc1`: inactive: 1.55%. The same measure for `CN(C)C1(CNC(=O)c2ccc(Cl)c(S(N)(=O)=O)c2)CCCCC1`: inactive: 2.76%; for `Nc1ccc([As](=O)(O)c2ccc([N+](=O)[O-])cc2)cc1`: inactive: 5.34%. Consider `C(Cc1nn[nH]n1)Cc1nn[nH]n1`, for which the activity is inactive: -5.17%. For the compound `C/C(N)=N\P(=O)(OCc1ccccc1)OCc1ccccc1`, the activity is inactive: 3.73%. `O=C(OC1CN2CCC1CC2)c1cccc(Cl)c1` (stereo not given): the activity is inactive: 1.43%. Next, `CC(=O)NC(SC(=S)N(C)C)C(Cl)(Cl)Cl` (stereo not given): inactive: 1.84%; `O=[N+]([O-])c1ncn(CCn2cnc([N+](=O)[O-])n2)n1`: inactive: 4.66%; `O=[As](O)(c1ccccc1)c1ccc(O)cc1`: inactive: -5.75%. The same measure for `c1nnnn1CCn1cnnn1`: inactive: 3.6%; for `CC(C)C(=O)NC(Sc1ccccc1)C(Cl)(Cl)Cl` (stereo not given): inactive: 0.59%; for `O=P(Nc1nccs1)(c1ccccc1)c1ccccc1`: inactive: -4.21%. Turning to `CCc1cc(O)c([N+](=O)[O-])c(C)c1[N+](=O)[O-]`, the activity is inactive: -0.63%. In the case of `CC(C)(C)C(=O)NC(Sc1ccccc1)C(Cl)(Cl)Cl` (stereo not given), the activity was inactive: 6.7%.

Turning to `CCOc1ccc(C2=NCC(CBr)S2)cc1` (stereo not given), the activity is inactive: -5%. Consider `O=P1(Nc2nc3ccc(Cl)cc3s2)COc2ccccc2O1` (stereo not given), for which the activity is inactive: -8.06%. The same measure for `CC(=O)Nc1ccc(Oc2c([N+](=O)[O-])cc([N+](=O)[O-])cc2[N+](=O)[O-])cc1`: inactive: 1.8%. As for `CC(=O)Nc1ccc([As](=O)(O)O)c(O)c1`, the activity was inactive: -0.04%.

Turning to `COC(=O)C1(C)COP(=O)(NCc2ccccc2)OC1` (stereo not given), the activity is inactive: 7.25%. The same measure for `N#C/C(=C\c1ccc(N(CCBr)CCBr)cc1)C(N)=O`: inactive: -8.46%; for `CC(=O)c1ccc(N2CC2c2ccncc2)cc1` (stereo not given): inactive: -3.95%; for `C[C@@H]1C=CCP(=O)(Oc2ccccc2)O1` (stereo not given in full): inactive: -7.04%. `C[C@H]1OP(=O)(Oc2ccccc2)C[C@@H]2O[C@@H]21` (stereo not given in full): the activity was inactive: -3%.

Regarding `Cc1ccccc1CN(C)C(=O)COC(=O)C(O)(c1ccccc1)c1ccccc1`, the activity was inactive: 2.37%. In the case of `O=P1(N(CCCl)CCCl)OCCC2CCCCN21` (stereo not given), the activity was inactive: 4.05%.

Take `CCNC(=S)/N=C(\N)N[N+](=O)[O-]`: the activity was inactive: 12.7%. For `O=C(NC1CCS(=O)(=O)C1)NP(=S)(Oc1ccccc1)Oc1ccccc1` (stereo not given), the activity is inactive: 1.91%. The same measure for `Cc1ccc(NP(=O)(Oc2cccc(C)c2)Oc2cccc(C)c2)nc1`: inactive: 5.65%; for `c1ccc(-c2nn[nH]n2)c(-c2nn[nH]n2)c1`: inactive: -2.04%. As to `CN(C)C(=O)Oc1noc2ccccc12`, the activity was inactive: -4.91%.

Consider `O=c1c2cc([N+](=O)[O-])ccc2[nH]c2c([N+](=O)[O-])cc([N+](=O)[O-])cc12`, for which the activity is inactive: 8.5%. The same measure for `Cc1ccccc1OP(=O)(Nc1ccccn1)Oc1ccccc1C`: inactive: 2.63%; for `CC(NC(=O)COC(=O)C(O)(c1ccccc1)c1ccccc1)c1ccccc1` (stereo not given): inactive: 5.95%. In the case of `CC(=O)NC(SC(=S)N(CC(C)C)CC(C)C)C(Cl)(Cl)Cl` (stereo not given), the activity is inactive: 9.92%.

Take `Cc1ccc(OP(=O)(Nc2ccccn2)Oc2ccc(C)cc2)cc1`: the activity is inactive: -4.47%. The same measure for `COC(=O)c1cc2c(s1)N=C(c1ccccc1)N(C)P2(=O)N1CCOCC1` (stereo not given): inactive: 4.19%; for `CCC(=O)N1C2C3N(C(=O)CC)C1C1N(C(=O)CC)C(C(N1C(=O)CC)N3C(=O)CC)N2C(=O)CC`: inactive: -7.7%.

Regarding `O=C(OC1CN2CCC1CC2)c1ccccc1` (stereo not given), the activity is inactive: 0.5%. Next, `Nc1ccccc1[As](=O)(O)c1ccccc1`: inactive: 0.94%; `O=C(O)COc1ccc([As](=O)(O)O)cc1[N+](=O)[O-]`: inactive: 1.76%; `O=P(Nc1nccs1)(Oc1ccccc1)Oc1ccccc1`: inactive: -2.45%. Turning to `CCOP1(=S)c2c(C)nn(CCC#N)c2N=C(c2ccccc2F)N1C` (stereo not given), the activity is inactive: 5.86%. For `CN(C(=O)Cc1ccc(Cl)c(Cl)c1)[C@H]1CC[C@@]2(CCCO2)C[C@@H]1N1CCCC1`, the activity was inactive: -4.39%. Next, `CN(C)C(=O)c1cc([N+](=O)[O-])cc2c1-c1c(cc([N+](=O)[O-])cc1[N+](=O)[O-])C2=O`: inactive: 4.93%. The same measure for `O=[N+]([O-])c1ccc2c(c1)nnn2O`: inactive: 0.16%; for `CCOP1(=S)c2c(C)nn(CCC#N)c2N=C(c2ccc(F)cc2)N1C` (stereo not given): inactive: 1.38%; for `CN(C(=O)Cc1ccccc1)[C@@H]1CC[C@]2(CCCO2)C[C@H]1N1CCCC1`: inactive: -6.56%. Next, `N#CCCN(C(=O)COC(=O)C(O)(c1ccccc1)c1ccccc1)c1ccc(F)cc1`: inactive: 1.97%. Turning to `O=[As](O)(c1cccc(O)c1)c1cccc(O)c1`, the activity is inactive: -4.37%. Next, `Cc1cccc(OCC(=O)OC2CN3CCC2CC3)c1` (stereo not given): inactive: -1.83%. The same measure for `CS(=O)(=O)c1ccc(Cl)c(NC(=O)COC(=O)C(O)(c2ccccc2)c2ccccc2)c1`: inactive: -6.15%.
